# Ab-14 heavy chain CDR variants: yeast mating affinities

Antigen: PDVDLGDISGINAS, a 14-residue peptide of the SARS-CoV-2 spike HR2 region.

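The parent was found by panning a naive human phage display library on the peptide. Designed CDR sequences, proposed from the first random library and measured here. Their group label is 14H_En_Gen (En: ensemble of fine-tuned language models; Gen: genetic algorithm). AlphaSeq pools MATa yeast showing the antibodies with MATalpha yeast showing the peptide. Binding brings cells together so that they mate, and sequencing counts the barcode pairs among the diploids. Read counts were normalised to the haploid input and turned into Kd by a linear fit to BCL2-family pairs of known affinity, for each replicate. The assay was run in six technical replicates.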

Parent scFv Ab-14: VH joined to VL by a 15-residue (Gly4Ser)3 linker. Changes lie in the heavy chain CDRs alone.
VH: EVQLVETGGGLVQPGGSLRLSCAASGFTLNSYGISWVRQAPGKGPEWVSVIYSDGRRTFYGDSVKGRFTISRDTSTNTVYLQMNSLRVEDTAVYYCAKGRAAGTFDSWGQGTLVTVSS
VL: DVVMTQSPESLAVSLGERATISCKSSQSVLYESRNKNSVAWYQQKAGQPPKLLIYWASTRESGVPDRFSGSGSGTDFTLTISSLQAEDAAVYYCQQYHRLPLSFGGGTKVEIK

Variants are written as CDR1, CDR2 and CDR3 of the heavy chain (limits as in the source). Parent: GFTLNSYGIS, VIYSDGRRTFYGDSVK, GRAAGTFDS.
Values are log10 of the apparent Kd in nM; lower means stronger binding.
"nd" means that the variant was in the library but no mating with the target was seen in that replicate; the authors take this as a sign of poor binding, and no number exists.
Of ten entries with the parent sequence, four were seen in most replicates (averages 0.34 to 2.37), three in one and three in none, so single entries are noisy.

| # | CDR-H1 | CDR-H2 | CDR-H3 | log10 Kd (nM) by replicate | signal with controls |
|---|---|---|---|---|---|
| 1 | GFDLNEYGIS | VIYADGMRTAYADDVK | GTNAGTFDI | -0.45 -0.64 -0.77 -0.98 -0.90 -0.42 | 0/18 |
| 2 | GFNLDEYGIS | VIYADGMRTAYADSVK | GEVAGTFDT | nd -0.49 0.22 0.63 0.46 0.87 | 0/18 |
| 3 | GFDLNEYGIS | VIYADGSRTAYTDSVK | GNVAGTFDI | -0.53 -0.48 -0.68 -0.60 -0.50 -0.62 | 0/18 |
| 4 | GFDLNEYGIS | VIYADGSRTAYTDSVK | GNVAGTFDV | -0.14 -0.99 -0.09 0.76 -0.67 -0.59 | 0/18 |
| 5 | GFDLDEYGIS | VIYADGMRTAYSDKVK | GNNAGTFDV | -0.26 -0.18 -0.54 -0.46 -0.44 -0.25 | 1/18 (3.50) |
| 6 | GFDLEDYGIS | VIYADGKRTAYADSVK | GEVAGTFDL | 0.82 0.31 0.80 -0.35 0.20 0.73 | 0/18 |
| 7 | GFDLNEYGIS | VIYADGQRTAYADSVK | GNQAGTFDT | -0.05 -0.34 -0.61 -0.52 -0.49 -0.46 | 0/18 |
| 8 | GFDLNEYGIS | VIYADGSRTFYADSVK | GQNAGTFDV | -0.10 0.07 -0.73 -0.95 -0.35 -0.16 | 0/18 |
| 9 | GFDLDEYGIS | VIYADGMRTAYSDSVK | GETAGTFDT | 0.11 -0.06 -0.74 0.04 -0.17 -0.36 | 0/18 |
| 10 | GFDLNEYGIS | VIYADGKRTAYVDSVK | GNTAGTFDV | -0.57 -0.47 -0.70 -0.80 -0.88 -0.57 | 1/18 (1.43) |
| 11 | GFDLNEYGIS | VIYADGMRTFYADDVK | GQNAGTFDV | 0.29 -0.17 -0.05 -0.37 0.69 -0.07 | 0/18 |
| 12 | GFDLNEYGIS | VIYADGQRTAYADSVK | GEVAGTFDA | -0.11 -0.37 -0.22 -0.26 -0.35 0.24 | 0/18 |
| 13 | GFDLNEYGIS | VIYADGMRTAYADSVK | GKNAGTFDL | -0.25 -0.33 -0.60 -0.68 -0.34 -0.56 | 0/18 |
| 14 | GFDLNEYGIS | VIYADGRRTAYTDSVK | GNEAGTFDV | -0.19 -0.21 -0.38 -0.47 -0.43 -0.44 | 2/18 (2.83) |
| 15 | GFDLNEYGIS | VIYADGKRTAYADKVK | GNNAGTFDV | -0.14 -0.26 -0.08 1.19 nd 0.05 | 0/18 |
| 16 | GFDLDEYGIS | VIYADGVRTAYADSVK | GNEAGTFDL | -0.29 -0.98 -0.91 -0.70 -1.05 -0.68 | 0/18 |
| 17 | GFDLNEYGIS | VIYADGKRTAYADSVK | GNTAGTFDM | -0.20 -0.26 -0.44 -0.38 -0.65 -0.33 | 0/18 |
| 18 | GFDLDEYGIS | VIYADGMRTFYADSVK | GNVAGTFDQ | -0.36 -0.65 -0.56 -0.57 -0.90 -0.69 | 0/18 |
| 19 | GFDLNEYGIS | VIYADGVRTFYADSVK | GEVAGTFDI | -0.05 -0.15 -0.21 -0.21 0.01 -0.25 | 0/18 |
| 20 | GFDLNEYGIS | VIYADGQRTAYADSVK | GNEAGTFDT | -0.23 -0.56 -0.23 -0.36 -0.19 -0.49 | 0/18 |
| 21 | GFDLNEYGIS | VIYADGRRTAYVDSVK | GNVAGTFDT | -0.35 -0.85 -0.57 -0.54 -0.88 -1.00 | 0/18 |
| 22 | GFDLDEYGIS | VIYADGRRTAYTDSVK | GNVAGTFDL | -0.18 -0.64 -0.64 -0.40 -0.60 -0.53 | 0/18 |
| 23 | GFDLNEYGIS | VIYADGVRTYYADSVK | GNVAGTFDT | -0.20 -0.14 -0.48 -0.14 -0.30 -0.14 | 0/18 |
| 24 | GFDLNEYGIS | VIYADGVRTAYADSVK | GSNAGTFDI | -0.26 -0.33 -0.67 -0.67 -0.47 -0.44 | 1/18 (2.10) |
| 25 | GFDLNEYGIS | VIYADGQRTAYIDSVK | GNQAGTFDV | -0.13 -0.26 -0.50 -0.52 -0.24 -0.27 | 0/18 |
| 26 | GFDLNEYGIS | VIYADGRRTAYSDSVK | GQNAGTFDM | 0.04 -0.19 -0.35 -0.87 -0.54 -0.14 | 1/18 (2.03) |
| 27 | GFDLNEYGIS | VIYADGVRTYYADSVK | GENAGTFDI | -1.00 -0.90 -0.84 -0.90 -1.10 -0.56 | 0/18 |
| 28 | GFDLDEYGIS | VIYADGMRTAYADDVK | GQNAGTFDI | -0.01 -0.75 -0.17 -0.41 -0.44 -0.51 | 0/18 |
| 29 | GFDLNEYGIS | VIYADGQRTFYADSVK | GQVAGTFDV | -0.57 -0.71 -0.74 -0.77 -1.08 -0.82 | 1/18 (2.37) |
| 30 | GFNLDEYGIS | VIYADGRRTAYADSVK | GNVAGTFDI | -0.10 -0.71 -0.78 -0.73 -0.24 -0.80 | 0/18 |
| 31 | GFDLDEYGIS | VIYADGVRTAYADSVK | GQNAGTFDM | 0.04 0.30 0.09 -0.18 0.05 0.05 | 0/18 |
| 32 | GFDLDEYGIS | VIYADGMRTAYADSVK | GETAGTFDT | 0.25 0.24 0.11 0.22 -0.08 -0.01 | 0/18 |
| 33 | GFDLNEYGIS | VIYADGMRTSYADSVK | GNVAGTFDT | -0.30 -0.51 -0.50 -0.38 -0.83 -0.43 | 0/18 |
| 34 | GFDLDEYGIS | VIYADGMRTSYSDSVK | GENAGTFDV | 1.68 1.26 1.28 0.94 1.48 1.18 | 0/18 |
| 35 | GFDLNEYGIS | VIYADGMRTSYADSVK | GTNAGTFDV | -1.33 -2.21 -1.45 -1.97 -0.32 -1.87 | 0/18 |
| 36 | GFDLDEYGIS | VIYADGVRTAYSDSVK | GNNAGTFDI | 1.05 0.91 0.77 0.36 1.09 0.99 | 0/18 |
| 37 | GFDLNEYGIS | VIYADGMRTYYADSVK | GANAGTFDI | 0.13 2.71 0.63 -0.60 0.33 0.56 | 0/18 |
| 38 | GFDLDEYGIS | VIYADGMRTFYSDSVK | GEVAGTFDV | 0.46 0.18 0.30 0.23 0.06 0.25 | 0/18 |
| 39 | GFDLNEYGIS | VIYADGMRTYYADSVK | GNNAGTFDQ | -0.30 -0.35 -0.47 -0.31 -0.25 -0.12 | 0/18 |
| 40 | GFDLNEYGIS | VIYADGVRTAYSDSVK | GNQAGTFDI | -0.11 0.05 -0.17 -0.68 -0.12 -0.10 | 0/18 |
| 41 | GFDLDEYGIS | VIYADGMRTAYIDSVK | GENAGTFDT | -0.46 0.01 -0.34 -0.76 0.29 0.07 | 0/18 |
| 42 | GFDLNEYGIS | VIYADGKRTAYADSVK | GQVAGTFDI | 0.69 0.22 0.63 -0.22 -0.15 0.24 | 0/18 |
| 43 | GFDLDEYGIS | VIYADGKRTAYADDVK | GNVAGTFDT | 0.16 0.12 -0.24 -0.37 -0.15 -0.16 | 0/18 |
| 44 | GFDLNEYGIS | VIYADGMRTFYADDVK | GNTAGTFDI | -0.12 -0.71 -0.54 -0.65 -0.13 -0.22 | 0/18 |
| 45 | GFDLNEYGIS | VIYADGMRTFYSDSVK | GENAGTFDM | 1.24 1.82 0.91 1.44 1.00 1.16 | 0/18 |
| 46 | GFDLDEYGIS | VIYADGLRTAYADSVK | GNVAGTFDV | 0.01 -0.17 -0.18 -0.72 -0.13 0.18 | 1/18 (1.37) |
| 47 | GFDLDEYGIS | VIYADGMRTAYADSVK | GNVAGTFTL | 0.20 -0.19 -0.36 -0.30 0.10 -0.12 | 1/18 (2.13) |
| 48 | GFDLNEYGIS | VIYADGSRTAYADDVK | GENAGTFDL | -0.10 -0.03 -0.62 -0.07 -0.18 0.13 | 0/18 |
| 49 | GFDLNEYGIS | VIYADGVRTAYADSVK | GENAGTFDT | -0.52 -0.31 -0.52 -0.34 -0.67 -0.21 | 0/18 |
| 50 | GFDLNEYGIS | VIYADGVRTVYADSVK | GENAGTFDL | 0.14 -0.34 0.06 -0.38 -0.31 -0.29 | 0/18 |
| 51 | GFDLNEYGIS | VIYADGVRTYYADSVK | GQNAGTFDV | -0.27 -0.46 -0.95 -0.62 -0.79 -0.54 | 0/18 |

A sequence measured in both rounds can read differently, since the two assays cover different ranges.
Nonspecific signal, from three strains lacking the peptide, appeared in 1% of pairings of all heavy chain designs, centred on 2.08 (5% of these signals below 0.84); values are not corrected for it. Also given: how often the same scFv was detected with the empty control strains, with their mean in brackets.
The authors' rule: three or more of the six replicates give a measured affinity, fewer mean a poor binder.

From the AlphaSeq antibody data of Li et al. 2023 (doi:10.1038/s41467-023-39022-2), copy in the FLAb collection.